The experiment addresses Mitogen-activated protein kinase 8 (Homo sapiens, UniProt P45983). The experiment is described as follows: Inhibition of JNK1-mediated ATF2 phosphorylation.

Amino acid sequences for entries named in this document (tags omitted). A change or cut given only in a name is not applied to a line headed by its entry.
UniProt P45983: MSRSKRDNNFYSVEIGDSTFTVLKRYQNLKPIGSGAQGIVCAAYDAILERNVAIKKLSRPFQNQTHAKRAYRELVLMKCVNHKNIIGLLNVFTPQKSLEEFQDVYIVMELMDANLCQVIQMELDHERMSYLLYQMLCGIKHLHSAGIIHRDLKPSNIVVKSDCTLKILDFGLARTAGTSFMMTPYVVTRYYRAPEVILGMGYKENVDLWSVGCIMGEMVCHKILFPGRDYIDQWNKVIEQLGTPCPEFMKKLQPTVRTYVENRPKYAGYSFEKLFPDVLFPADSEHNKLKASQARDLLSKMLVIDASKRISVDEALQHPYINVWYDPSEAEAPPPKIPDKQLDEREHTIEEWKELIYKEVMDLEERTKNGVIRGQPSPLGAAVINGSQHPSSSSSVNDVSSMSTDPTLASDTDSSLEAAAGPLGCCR

As to `CCOc1nc(NC(=O)Cc2cc(OC)c(Br)cc2OC)cc(N)c1C#N`, half-maximal inhibition (IC50) was put at 77 nM.

Values taken from ChEMBL document CHEMBL1148638, “Aminopyridine-based c-Jun N-terminal kinase inhibitors with cellular activity and minimal cross-kinase activity” (J Med Chem, 2006).
